US7785581B2, “Composition and method for reducing feces toxins and treating digestive disorders” (Qingdao East Sea Pharmaceuticals Ltd., priority 2006, dated 2010)

Tested on: IBS patients
Assay: Treatment of IBS with live Bifidobacterium tablets (Example 8)
Conditions: 14 to 21 days

Bifidobacterium
side effects during treatment: No side effects
